{"source": "patent US11660265B2", "about": "“Method of rapidly achieving therapeutic concentrations of triptans for treatment of migraines and cluster headaches” (ZP Opco, Inc., priority 2018, dated 2023)", "assay": "Phase 1 human PK study (plasma zolmitriptan, N-desmethyl zolmitriptan, sumatriptan)", "details": "plasma N-desmethyl zolmitriptan metabolite", "description": "The final treatment administered was 3.8 mg on a 10 cm^2 patch using an applicator with 0.52 Joule of application energy in the intracutaneous microneedle system described herein. The products tested were:\nThis was a single-center, open-label, randomized five-way crossover study (Part 1) followed by a sequential study of two additional treatments (Parts 2 and 3). After obtaining informed consent and establishing eligibility, each subject received each of the seven study treatments once, followed by in-clinic monitoring and extensive blood sample collection for pharmacokinetic analysis. […] Plasma samples from the initial dosing days were sent to the analytical laboratory for analysis, and tolerability for each of the dose levels was summarized. […] During Part 3, subjects received a single 3.8 mg patch (applied with a 0.52 J applicator) and also completed identical procedures to the previous dosing days. After completion of the seven dosing days, subjects were assessed one final time and dismissed from the study.\nTwenty subjects were enrolled in the study, 10 males and 10 females. The subjects mean age was 29 years±3.5 years with a mean BMI of 24.4±3.5.\nPK parameters were summarized by treatment group using descriptive statistics (arithmetic means, standard deviations, coefficients of variation, sample size, minimum, maximum, and median)."}
{"substance": "zolmitriptan [Zolmitriptan 2.5 mg Oral Tablet]", "values": [{"measurement": "t1/2, Mean", "result": 192.9}, {"measurement": "t1/2, Median", "result": 164.6}]}
